This is an account of results in patent publication US10442845B2, “Interferon analogs” (BiOrion Technologies B.V., priority 2009, dated 2019).

This assay deals with Human Hepatocytes (HepG2). The experiment in a line: ICAM1 expression in human hepatocytes (HepG2). To be noted: 1 ug/ml, 24 hrs, 18srRNA housekeeping control. Type of assay: cell-based. The protocol: Human Hepatocytes (HepG2) were plated in 12 well plates (1×10^5 cells/well). The cells were grown overnight in 5%/37° C./CO2 incubator. Subsequently, cells were incubated with medium, mouse IFNγ (1 ug/ml), Human IFNγ (1 ug/ml), mouse IFNγ derived Lac-HSA-PEG-IFNγ (1 ug/ml), Lac-HSA or Lac-HSA-PEG-IFNγ (1 ug/ml) after 2 hrs of blocking with Lac-HSA. After 24 hrs of incubation, cells were lysed, RNA was isolated and reverse transcribed. The cDNA was used for the analysis of Inter-Cellular Adhesion Molecule 1 (ICAM1) expression, which is known to be induced in response to IFNγ. 18srRNA was used a housekeeping control.

For the substance “Lac-HSA: 25 lactose molecules coupled to human serum albumin [reference compound]”, the ICAM1 expression entry is on record as “neither mouse truncated IFNγ nor Lac-HSA induced ICAM1 expression”.
